From PubChem
Cneo AK release – Cryptococcus neoformans cell lysis inducers, primary screen, AK release luminescence, single concentration. hit rate 0.2% among 360,000. C. neoformans lysis, adenylate kinase release luminescence, 4 h; normalised: neutral wells 0, clomiphene wells 100. lysis activity, % at 15 µM;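 active means mean lysis activity across replicates of at least 80%, whatever share of replicates individually reach that level; inactive means mean lysis activity below 80%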
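Assay system: C. neoformans cells. Amount: yeast cell density of 5 × 10^6 cells/mL. Technique: AK luminescence. Buffer or medium: YPD. Times: static 4 h at 37 °C with compound, 1 h detection. Dosing: single-point compound dose. Read-out: lysis from increased AK signal.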
miR122 inh – miR-122 Renilla sensor signal increase in Huh7, primary screen, miR-122 inhibitor project, cell-based, single point, plate reader | Huh7 miR-122 Renilla luciferase sensor, 48 h; neutral wells = 0, positive control = 100 | activation (reporter increase), % at 12.5 µM | hit rate 0.3% among 340,000 | AID 602342, 2012;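 active means mean replicate activation score at least 90 and every replicate individually at or above 90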;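 further: higher luciferase means less miR-122 activity so hits act as miR-122 inhibitors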
Yeast UUG start – yeast start codon fidelity modulation; AID 602363; activity score, % at 18.7 µM; S. cerevisiae UUG-firefly luciferase reporter, luminescence/redox ratio; 0.13% of 350,000 active;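 active means replicate mean at a twofold rise or more, about +100% in these data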;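 further: firefly luciferase made from a UUG start codon reports start codon fidelity; reporter light over untreated wells divided by growth signal over untreated wells; some hits fall short of that in this replicate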
HIV Env fusion – inhibitors of HIV-1 Env-driven cell-cell fusion, primary screen, HeLa-JRFL effector, CEM21 target cells, luciferase; inhibition, % at 12.3 µM; hit rate 1.1% among 360,000;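 active means mean replicate inhibition score of at least 50 and every replicate individually at or above 50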;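 further: 0% = plate neutral controls and 100% = maraviroc near 300 nM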
PGC1a acetyl inh – inhibitors of PGC1a acetylation signal, primary screen, cell-based, U2OS, AlphaScreen, inhibitor mode | hit rate 0.17% among 350,000 | inhibition, % at 15.6 µM | AlphaScreen anti-acetyl-lysine; with virally co-expressed GCN5 acetyltransferase;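 active means every replicate shows inhibition of at least 40%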;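 further: 0% = neutral control wells and 100% = positive control wells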
FN deposit inh – inhibitors of fibronectin matrix deposition, primary screen, AH1F cells, Alexa488-fibronectin fluorescence, plate reader | AH1F fibroblasts, overnight | inhibition, % at 12.6 µM | hit rate 0.086% among 350,000 | AID 743247, 2014;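 active means mean inhibition across replicates of 30% or more, regardless of how many single replicates reach that level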;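 further: positive control wells lacked labelled fibronectin entirely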
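Measured by – fluorescence 485/525 nm · System – AH1F fibroblast monolayer, labelled fibronectin deposition · Amount – 10000 cells per well · Buffer or medium – serum-reduced DMEM (2% serum) · Doses – single dose, pinned · Also added – fluorescent fibronectin at 24 nM final · Schedule – 1 h cell attachment, overnight exposure to compound and label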
Starred values were filed as active, the others as inactive; [ ] = another dose, or the depositor's remark. In the library only some 1.5% were active in any assay of this set; here they are far more common.

Cc1ccccc1Cn1cc(NC(=O)c2noc3c2CC(C(C)(C)C)CC3)cn1 (stereo not given) was read as Cneo AK release 1.3, miR122 inh -7.2, Yeast UUG start -16.3 and PGC1a acetyl inh 0.0.
For Cc1ccccc1Cn1nc(C)c(NC(=O)c2noc3c2CC(C(C)(C)C)CC3)c1C (stereo not given) the results were Cneo AK release 2.3, miR122 inh 0.6, Yeast UUG start -5.7, HIV Env fusion 56.3*, PGC1a acetyl inh 8.8 and FN deposit inh 0.7.
`Cc1nn(Cc2ccc(Cl)c(Cl)c2)c(C)c1NC(=O)c1noc2c1CCCCC2` gave Cneo AK release 0.8, miR122 inh -2.1, Yeast UUG start -16.9, HIV Env fusion 55.8*, PGC1a acetyl inh -2.5 and FN deposit inh -18.9.
`CCn1c(SCC(=O)NC2CCCC2)nnc1-c1ccccn1` gave Cneo AK release -0.8, miR122 inh -6.0, Yeast UUG start 3.8, HIV Env fusion 0.2, PGC1a acetyl inh 2.5 and FN deposit inh -1.0.
`CCN(CC)C(=O)c1ncn2c1C(=O)N[C@H](C)C2` gave HIV Env fusion 61.5* and FN deposit inh -1.8.
For C[C@H]1Cn2cnc(C(=O)N3CCN(C(=O)OC(C)(C)C)CC3)c2C(=O)N1 the results were HIV Env fusion -37.2 and FN deposit inh 11.5.
CC1CCN(C(=O)c2ncn3c2C(=O)N[C@H](C)C3)CC1 was read as HIV Env fusion 71.9* and FN deposit inh -4.7.
`CCN(CC)C(=O)c1ncn2c1C(=O)N[C@@H](C)C2` gave HIV Env fusion 45.2 and FN deposit inh -27.6.
CC(C)NC(=O)Nc1ccc2c(c1)C(=O)N([C@@H](C)CO)C[C@@H](C)[C@H](CN(C)C(=O)c1ccncc1)OCCCC[C@H](C)O2 was read as Cneo AK release 114.5*, miR122 inh 12.7[16.7 µM], HIV Env fusion -6.6[16.7 µM], PGC1a acetyl inh -1.5 and FN deposit inh 4.5.
For CC(C)NC(=O)Nc1ccc2c(c1)C(=O)N([C@@H](C)CO)C[C@@H](C)[C@@H](CN(C)C(=O)c1ccncc1)OCCCC[C@@H](C)O2 the results were Cneo AK release 111.1*, miR122 inh 6.5[16.7 µM], HIV Env fusion 17.3[16.7 µM], PGC1a acetyl inh 2.8 and FN deposit inh 9.8.
For O=S(=O)(NCCc1csc(-c2cccnc2)n1)c1ccc(Cl)s1 the results were Cneo AK release 2.6, miR122 inh 39.9, Yeast UUG start -13.1, HIV Env fusion 121.9*, PGC1a acetyl inh 1.2 and FN deposit inh 7.3.
`COc1ccc(/C=C/C(=O)c2ccc3c(c2)OCO3)c(OC)c1` gave Cneo AK release -4.3, miR122 inh 144.6*, Yeast UUG start -28.4, HIV Env fusion -39.4, PGC1a acetyl inh -4.6 and FN deposit inh 2.7.
`CC(=O)c1ccc(NC(=O)C(C)N(C)CC(=O)Nc2ccc(Cl)cc2)cc1` (stereo not given) gave Cneo AK release 0.7, miR122 inh 2.0, Yeast UUG start -6.4, HIV Env fusion -17.7 and FN deposit inh 8.7.
For CCCC(C)NS(=O)(=O)c1ccccc1 (stereo not given) the results were Cneo AK release -0.7, miR122 inh 6.7, Yeast UUG start -16.1 and PGC1a acetyl inh 0.1.
For CCCC(C)NS(=O)(=O)c1ccc(OC)c(C)c1 (stereo not given) the results were Cneo AK release 1.2, miR122 inh 152.6*, Yeast UUG start -5.4, HIV Env fusion -44.6, PGC1a acetyl inh -6.5 and FN deposit inh -10.7.

3 entries drawn at random from those above:
For O=S(=O)(NCCc1csc(-c2cccnc2)n1)c1ccc(Cl)s1 the results were Cneo AK release 2.6, miR122 inh 39.9, Yeast UUG start -13.1, HIV Env fusion 121.9*, PGC1a acetyl inh 1.2 and FN deposit inh 7.3.
`CC(=O)c1ccc(NC(=O)C(C)N(C)CC(=O)Nc2ccc(Cl)cc2)cc1` (stereo not given) gave Cneo AK release 0.7, miR122 inh 2.0, Yeast UUG start -6.4, HIV Env fusion -17.7 and FN deposit inh 8.7.
`CCn1c(SCC(=O)NC2CCCC2)nnc1-c1ccccn1` gave Cneo AK release -0.8, miR122 inh -6.0, Yeast UUG start 3.8, HIV Env fusion 0.2, PGC1a acetyl inh 2.5 and FN deposit inh -1.0.

Remaining list, next part.
`Nc1ccc2c(c1)C(=O)C(=O)c1ccccc1-2` gave miR122 inh -30.6 and PGC1a acetyl inh 106.9*.
For C[C@@]12C(=O)N(Cc3ccc(Cl)cc3)CC(=O)N1[C@H]1c3ccccc3OC[C@@H]1[C@@H]2c1ccccc1 the results were Cneo AK release 6.3, miR122 inh -2.4, Yeast UUG start -3.8, HIV Env fusion 29.0 and FN deposit inh 1.0.
Screening C[C@@]12C(=O)N(Cc3ccc(F)cc3)CC(=O)N1[C@H]1c3cc(Cl)ccc3OC[C@@H]1[C@@H]2c1ccccc1 returned Cneo AK release -3.5, miR122 inh -9.2, Yeast UUG start -4.4, HIV Env fusion 77.3* and FN deposit inh 4.6.
Screening C[C@@]12C(=O)N(CCc3c[nH]c4ccccc34)CC(=O)N1[C@H]1c3ccccc3OC[C@@H]1[C@@H]2c1ccccc1 returned Cneo AK release 4.3, miR122 inh -4.5, Yeast UUG start -11.5, HIV Env fusion 82.3* and FN deposit inh -0.3.
C[C@@]12C(=O)N(Cc3ccco3)CC(=O)N1[C@H]1c3cc(Cl)ccc3OC[C@@H]1[C@@H]2c1ccccc1 was read as Cneo AK release -1.3, miR122 inh -7.2, Yeast UUG start 7.8, HIV Env fusion 16.3, PGC1a acetyl inh -10.8 and FN deposit inh 12.9.
Screening C[C@@]12C(=O)N(Cc3ccccc3)CC(=O)N1[C@H]1c3cc(Cl)ccc3OC[C@@H]1[C@@H]2c1ccccc1 returned Cneo AK release 3.3, miR122 inh 0.3, Yeast UUG start -0.7, HIV Env fusion 61.1*, PGC1a acetyl inh -2.1 and FN deposit inh 8.2.
NCC[C@@H]1CC[C@@H](NC(=O)c2ccccc2F)[C@@H](CO)O1 was read as PGC1a acetyl inh 9.3 and FN deposit inh 9.9.
Screening Oc1ccccc1-c1cc(-c2ccc3c(c2)OCCO3)n[nH]1 returned Cneo AK release -29.0, miR122 inh 19.1, Yeast UUG start -51.8 and PGC1a acetyl inh 2.0.
For COC(=O)C1=C(C)NC(C)=C(C(=O)OC)C1C(=O)OCC(=O)NC1CCCCC1C (stereo not given) the results were Cneo AK release -0.2, miR122 inh -0.8, Yeast UUG start 5.9, HIV Env fusion 68.2*, PGC1a acetyl inh 1.6 and FN deposit inh 4.8.
CCOC(=O)c1ccc(N=Nc2c(C)[nH]n(-c3ccccc3)c2=O)cc1 was read as Cneo AK release 2.3, miR122 inh -3.2, Yeast UUG start -15.2, HIV Env fusion -7.4, PGC1a acetyl inh -2.9 and FN deposit inh -0.9.
Screening CCOC(=O)c1ccc(-n2[nH]c(-c3ccccc3)cc2=O)cc1 returned Cneo AK release 2.5, miR122 inh 20.3, Yeast UUG start 2.5, HIV Env fusion 57.7* and PGC1a acetyl inh 10.8.
`Cc1ccccc1N1CCN(C(=O)c2ccc(Oc3ccc(C(F)(F)F)cn3)cc2)CC1` gave Cneo AK release 9.6, miR122 inh -1.8, Yeast UUG start -0.9, HIV Env fusion 68.4*, PGC1a acetyl inh 12.2 and FN deposit inh 1.8.
